# Experimental data as given in patent publication US20170035787A1, “Fixed Dose Combination for Pain Relief Without Edema” (Autotelic LLC, priority 2014, published 2017).
# Details: human, in vivo
compound,measurement,value
Cc1ccc(-c2cc(C(F)(F)F)nn2-c2ccc(S(N)(=O)=O)cc2)cc1 [celecoxib],cases of Edema (%),26.7%
